System: p44/42 MAP kinase (sum of Erk2 and pErk2)
Test: Cell lysate array on evanescent field sensor platform, detection with antibody A4
Assay type: cell-based, human
Conditions: Jurkat cells, staurosporine 10 μM, 180 min

CN[C@@H]1C[C@H]2O[C@@](C)([C@@H]1OC)n1c3ccccc3c3c4c(c5c6ccccc6n2c5c31)C(=O)NC4 [staurosporin, staurosporine]
relative total content of Erk2/pErk2 in comparison with the other samples: no difference

From patent publication US20050059014A1, “Analytical platform and detection method with the analytes to be determined in a sample as immobilized specific binding partners” (priority 2002, published 2005)
